Results taken from US20070225248A1 (Clavis Pharma AS, priority 2006, published 2007).

System: Colon 6044 (human colon carcinoma)
Assay: Antitumour activity in Co6044 after oral administration (Table 3)
Conditions: all tested doses (120, 180, 240 mg/kg)

For `Nc1ccn([C@@H]2O[C@H](CO)[C@@H](O)C2(F)F)c(=O)n1` [Gemcitabine, 2′,2′-difluorodeoxycytidine, reference compound], the “toxicity after oral administration (in words)” value was “toxic at all tested doses”.
